From patent US11773071B2, “Benzothiazepine compounds and their use as bile acid modulators” (Albireo AB, priority 2019, dated 2023)
pIC50: −log10 of the molar value.

By UniProt entry, the sequences of proteins in these tests, tags left out.
UniProt Q14973, whole entry: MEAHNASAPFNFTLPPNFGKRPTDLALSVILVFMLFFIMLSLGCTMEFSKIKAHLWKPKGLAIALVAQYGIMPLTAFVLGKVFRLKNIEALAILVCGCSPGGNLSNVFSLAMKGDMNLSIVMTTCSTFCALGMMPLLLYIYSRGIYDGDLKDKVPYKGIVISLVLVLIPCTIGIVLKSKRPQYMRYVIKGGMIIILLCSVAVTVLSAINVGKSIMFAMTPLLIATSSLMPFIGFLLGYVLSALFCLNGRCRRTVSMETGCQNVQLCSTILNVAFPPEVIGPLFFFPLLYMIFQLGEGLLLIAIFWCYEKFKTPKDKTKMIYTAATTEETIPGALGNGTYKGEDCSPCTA
UniProt Q12908, whole entry: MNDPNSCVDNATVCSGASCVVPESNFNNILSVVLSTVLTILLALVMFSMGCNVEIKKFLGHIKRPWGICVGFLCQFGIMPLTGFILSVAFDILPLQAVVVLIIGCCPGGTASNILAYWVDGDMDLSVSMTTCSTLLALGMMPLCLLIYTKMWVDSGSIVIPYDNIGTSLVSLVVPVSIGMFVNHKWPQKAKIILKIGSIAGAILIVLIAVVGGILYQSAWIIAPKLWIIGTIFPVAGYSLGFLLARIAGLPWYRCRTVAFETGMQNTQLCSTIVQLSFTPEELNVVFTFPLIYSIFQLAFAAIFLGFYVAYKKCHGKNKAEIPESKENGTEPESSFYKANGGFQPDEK

What was measured:
Human LBAT = Human LBAT (Homo sapiens, UniProt Q14973); experiment: LBAT (h/m) assay, human LBAT-overexpressing cells, 3H-taurocholic acid uptake; details: read-out: hLBAT IC50, 0.3 μM 3H-taurocholic acid and 7.5 μM cold taurocholic acid, 20 minutes
Human IBAT = Human IBAT (Homo sapiens, UniProt Q12908); experiment: IBAT (h/m) assay, human IBAT-overexpressing cells, 3H-taurocholic acid uptake; details: read-out: hIBAT IC50, 0.25 μM 3H-taurocholic acid and 5 μM cold taurocholic acid, 20 minutes

| pIC50 (Human LBAT) | pIC50 (Human IBAT) | Structure (SMILES) |
| --- | --- | --- |
| 6.54 | 7.62 | CCCCC1(CC)CN(c2ccc(F)cc2)c2cc(SC)c(OCCC(=O)O)cc2S(=O)(=O)C1 (single isomer, unassigned) [38, enantiomer 1] |
| 6.36 | 9.10 | CCCCC1(CC)CN(c2ccc(F)cc2)c2cc(SC)c(OCCC(=O)O)cc2S(=O)(=O)C1 (single isomer, unassigned) [38, enantiomer 2] |
